Results: patent US10087148B2, “Quinazolines as biogenic amine transport modulators” (THE UNITED STATES OF AMERICA AS REPRESENTED BY THE …, priority 2014, dated 2018)

Amino acid sequences for entries named in this document (tags omitted). Residues count along the entry.
UniProt P31652, whole entry: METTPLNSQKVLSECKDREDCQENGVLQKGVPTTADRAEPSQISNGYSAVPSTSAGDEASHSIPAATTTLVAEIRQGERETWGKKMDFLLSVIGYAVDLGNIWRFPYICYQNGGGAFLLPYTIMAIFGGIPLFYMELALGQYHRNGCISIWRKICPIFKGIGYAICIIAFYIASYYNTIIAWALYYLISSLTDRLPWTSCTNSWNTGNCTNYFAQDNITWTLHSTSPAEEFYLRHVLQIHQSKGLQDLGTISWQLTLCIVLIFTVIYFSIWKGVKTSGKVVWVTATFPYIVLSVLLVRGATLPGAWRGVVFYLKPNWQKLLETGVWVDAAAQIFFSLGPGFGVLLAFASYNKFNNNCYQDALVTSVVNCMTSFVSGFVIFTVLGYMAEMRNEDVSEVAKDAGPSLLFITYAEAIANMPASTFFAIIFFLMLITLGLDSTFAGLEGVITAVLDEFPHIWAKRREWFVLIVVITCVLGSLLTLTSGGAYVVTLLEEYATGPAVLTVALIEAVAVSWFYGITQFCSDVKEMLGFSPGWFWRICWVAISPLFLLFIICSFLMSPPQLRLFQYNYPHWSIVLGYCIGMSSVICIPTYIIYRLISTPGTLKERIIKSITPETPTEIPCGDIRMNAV
UniProt Q63380, 1-617: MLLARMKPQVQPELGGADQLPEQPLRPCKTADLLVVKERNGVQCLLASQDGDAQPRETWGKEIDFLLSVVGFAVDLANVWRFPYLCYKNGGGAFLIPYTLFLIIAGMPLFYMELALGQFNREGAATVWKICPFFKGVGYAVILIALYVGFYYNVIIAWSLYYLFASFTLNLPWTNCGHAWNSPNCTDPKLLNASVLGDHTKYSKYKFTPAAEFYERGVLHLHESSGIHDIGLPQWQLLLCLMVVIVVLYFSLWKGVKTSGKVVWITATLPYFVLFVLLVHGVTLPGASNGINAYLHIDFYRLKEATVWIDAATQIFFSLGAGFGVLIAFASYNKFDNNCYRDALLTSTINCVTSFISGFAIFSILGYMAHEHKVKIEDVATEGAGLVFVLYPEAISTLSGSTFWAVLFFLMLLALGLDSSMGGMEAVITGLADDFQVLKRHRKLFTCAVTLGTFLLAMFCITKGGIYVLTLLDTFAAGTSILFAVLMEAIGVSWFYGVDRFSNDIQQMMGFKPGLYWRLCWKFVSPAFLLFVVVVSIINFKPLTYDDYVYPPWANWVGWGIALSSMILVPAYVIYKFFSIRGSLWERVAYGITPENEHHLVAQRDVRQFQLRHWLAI

Assays:
[1] = biological target: serotonin transporter (SERT) (Rattus norvegicus (Rat), UniProt P31652); test: [3H]serotonin (5-HT) uptake inhibition in rat brain synaptosomes; assay type: biochemical; conditions: mean ± S.D.; n = 3
Procedure: Uptake inhibition assay for the serotonin transporter was conducted in rat brain synaptosomes as described elsewhere with minor modifications (Rothman et al., Synapse 39, 32-41 (2001)). Freshly removed whole brain minus cerebellum and caudate was homogenized in 10% ice-cold sucrose with 12 strokes of a hand-held Potter-Elvehjem homogenizer followed by centrifugation at 1000×g for 10 min. The supernatants were saved on ice and used immediately. Transporter activity at SERT was assessed using 5 nM [^3H]serotonin. The assay buffer was Krebs-phosphate buffer containing 154.4 mM NaCl, 2.9 mM KCl, 1.1 mM CaCl2, 0.83 mM MgCl2, 5 mM glucose, 1 mg/mL ascorbic acid, and 50 μM pargyline. […] Uptake inhibition assays were conducted at 25° C. and were initiated by adding 100 μL of tissue to 900 μL assay buffer containing test drug and [^3H]serotonin. Test drugs were diluted in assay buffer containing 1 mg/mL bovine serum albumin. Nonspecific uptake was measured by incubating in the presence of 10 μM indatraline. […] Filters were rinsed with 6 mL wash buffer and retained tritium was quantified by a MicroBeta liquid scintillation counter (PerkinElmer) after overnight extraction in 0.6 mL of liquid scintillation cocktail (Cytoscint, ICN). […]

[2] = biological target: norepinephrine transporter (NET) (Rattus norvegicus, UniProt Q63380); test: [3H]norepinephrine (NE) uptake inhibition in rat brain synaptosomes; assay type: biochemical; conditions: mean ± S.D.; n = 3
Procedure: Uptake inhibition assay for the norepinephrine transporter was conducted in rat brain synaptosomes as described elsewhere with minor modifications (Rothman et al., Synapse 39, 32-41 (2001)). Freshly removed whole brain minus cerebellum and caudate was homogenized in 10% ice-cold sucrose with 12 strokes of a hand-held Potter-Elvehjem homogenizer followed by centrifugation at 1000×g for 10 minutes. The supernatants were saved on ice and used immediately. Transporter activity at NET was assessed using 10 nM [^3H]norepinephrine. The assay buffer was Krebs-phosphate buffer containing 154.4 mM NaCl, 2.9 mM KCl, 1.1 mM CaCl2, 0.83 mM MgCl2, 5 mM glucose, 1 mg/mL ascorbic acid, and 50 μM pargyline. […] Uptake inhibition assays were conducted at 37° C. and were initiated by adding 100 μL of tissue to 900 μL assay buffer containing test drug and [^3H]norepinephrine. Test drugs were diluted in assay buffer containing 1 mg/mL bovine serum albumin. Nonspecific uptake was measured by incubating in the presence of 10 μM indatraline. […] Filters were rinsed with 6 mL wash buffer and retained tritium was quantified by a MicroBeta liquid scintillation counter (PerkinElmer) after overnight extraction in 0.6 mL of liquid scintillation cocktail (Cytoscint, ICN). […]

## COC(=O)[C@H]1[C@@H](OC(=O)c2ccccc2)C[C@@H]2CC[C@H]1N2C [Cocaine, reference compound]
[1]
  IC50: 273 ± 24 nM
[2]
  IC50: 329 ± 22 nM
